According to PubChem BioAssay AID434982 (The Scripps Research Institute Molecular Screening Center, 2010):
This is a selection; strong and weak results do not stand in their true shares. Calls of active or inactive are those of the source. Cut-off read from the data, not from the text of the source: active = activation above about 2.2%; inactive = the rest.

Assay: agonists of NOTCH signaling (AID 434982)
Conditions: NOTCH signaling luciferase reporter cells, luminescence; at 2.5 µM; active compounds read high

Row | SMILES | activation
1 | O=[N+]([O-])C1([N+](=O)[O-])COCOC1 | inactive: -0.63%
